Only a part is listed here, and it is no random draw. Some of these compounds have results that are not shown, active ones among them. Activity calls are given as the source filed them. Rule as the data show it: active = inhibition above about 34% (passing the limit was not always enough); inactive = the rest.

Sequences of proteins named here, by UniProt entry; tags and fusion partners are left off.
UniProt P53350, whole entry: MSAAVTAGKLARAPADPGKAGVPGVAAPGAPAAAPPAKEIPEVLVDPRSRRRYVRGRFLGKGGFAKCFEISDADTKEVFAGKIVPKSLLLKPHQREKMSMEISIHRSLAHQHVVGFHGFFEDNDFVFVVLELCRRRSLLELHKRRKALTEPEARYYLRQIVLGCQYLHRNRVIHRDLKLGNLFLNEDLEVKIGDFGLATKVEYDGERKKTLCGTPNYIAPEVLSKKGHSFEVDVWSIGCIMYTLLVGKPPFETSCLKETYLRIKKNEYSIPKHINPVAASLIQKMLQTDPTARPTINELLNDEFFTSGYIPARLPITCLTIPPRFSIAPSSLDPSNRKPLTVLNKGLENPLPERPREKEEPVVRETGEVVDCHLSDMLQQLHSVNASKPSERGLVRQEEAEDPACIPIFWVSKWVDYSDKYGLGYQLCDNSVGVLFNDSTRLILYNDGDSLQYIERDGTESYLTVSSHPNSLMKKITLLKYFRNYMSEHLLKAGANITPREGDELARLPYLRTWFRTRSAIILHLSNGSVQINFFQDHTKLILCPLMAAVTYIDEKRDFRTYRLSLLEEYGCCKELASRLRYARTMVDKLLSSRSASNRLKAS

By inhibition is commonly meant the relative decrease from the control value, in per cent.

For this assay, the target named is Serine/threonine-protein kinase PLK1 (Homo sapiens) (UniProt P53350). Briefly: blockers of phosphopeptide binding to Plk1 PBD – biochemical, fluorescence polarization, primary screen (AID 693). The settings on record: active compounds read high,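 tested at about 20 µM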.
`CN(C)c1cccc(C(=O)NCC2(N(C)C)CCCCC2)c1`: the inhibition is inactive: -7.01%.
As to `O=C(OC1CN2CCC1CC2)C(CO)(c1ccccc1)c1ccccc1` (stereo not drawn), the inhibition is inactive: 21.1%.
The same measure for `CC(C)N1C(=O)CC2(CCN(CCOC(=O)C(O)(c3ccccc3)c3ccccc3)CC2)C1=O`: inactive: -5.18%.

These data come from PubChem BioAssay AID693 (University of Pittsburgh Molecular Library Screening Center, 2007).
